Source: publication PMC7723054
This is one part of the list.

Tests used:
Experiment in all cases: FOREST: bead pull-down of RNA structure library v1, barcode microarray; U1A/LIN28A: 20 mM HEPES pH 7.5, 80 mM KCl, 20 mM NaCl, 10% glycerol, 2 mM DTT, 0.1 ug/uL BSA, 4 C; BG4/CIRBP/DHX36: 10 mM Tris-HCl pH 7.5, 100 mM KCl (or LiCl),; high values mean tight binding
LIN28A = target: T1, LIN28A (human?, UniProt Q9H9Z2 1-209)
T1 sequence: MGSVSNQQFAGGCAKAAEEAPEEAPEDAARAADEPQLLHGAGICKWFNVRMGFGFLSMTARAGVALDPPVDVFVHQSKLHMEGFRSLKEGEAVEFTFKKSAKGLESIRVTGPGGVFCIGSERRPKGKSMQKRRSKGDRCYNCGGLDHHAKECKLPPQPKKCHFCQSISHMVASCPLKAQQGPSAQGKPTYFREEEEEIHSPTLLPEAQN

CIRBP = target: T2, CIRBP (Homo sapiens, UniProt Q14011 1-172)
T2 sequence: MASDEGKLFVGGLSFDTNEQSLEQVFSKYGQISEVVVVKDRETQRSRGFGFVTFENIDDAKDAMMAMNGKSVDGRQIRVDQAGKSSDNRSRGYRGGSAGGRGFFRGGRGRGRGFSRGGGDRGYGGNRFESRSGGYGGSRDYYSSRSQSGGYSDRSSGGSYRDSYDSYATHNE

DHX36 = target: T3, DHX36 (Homo sapiens, UniProt Q9H2U1 1-1008)
T3 sequence: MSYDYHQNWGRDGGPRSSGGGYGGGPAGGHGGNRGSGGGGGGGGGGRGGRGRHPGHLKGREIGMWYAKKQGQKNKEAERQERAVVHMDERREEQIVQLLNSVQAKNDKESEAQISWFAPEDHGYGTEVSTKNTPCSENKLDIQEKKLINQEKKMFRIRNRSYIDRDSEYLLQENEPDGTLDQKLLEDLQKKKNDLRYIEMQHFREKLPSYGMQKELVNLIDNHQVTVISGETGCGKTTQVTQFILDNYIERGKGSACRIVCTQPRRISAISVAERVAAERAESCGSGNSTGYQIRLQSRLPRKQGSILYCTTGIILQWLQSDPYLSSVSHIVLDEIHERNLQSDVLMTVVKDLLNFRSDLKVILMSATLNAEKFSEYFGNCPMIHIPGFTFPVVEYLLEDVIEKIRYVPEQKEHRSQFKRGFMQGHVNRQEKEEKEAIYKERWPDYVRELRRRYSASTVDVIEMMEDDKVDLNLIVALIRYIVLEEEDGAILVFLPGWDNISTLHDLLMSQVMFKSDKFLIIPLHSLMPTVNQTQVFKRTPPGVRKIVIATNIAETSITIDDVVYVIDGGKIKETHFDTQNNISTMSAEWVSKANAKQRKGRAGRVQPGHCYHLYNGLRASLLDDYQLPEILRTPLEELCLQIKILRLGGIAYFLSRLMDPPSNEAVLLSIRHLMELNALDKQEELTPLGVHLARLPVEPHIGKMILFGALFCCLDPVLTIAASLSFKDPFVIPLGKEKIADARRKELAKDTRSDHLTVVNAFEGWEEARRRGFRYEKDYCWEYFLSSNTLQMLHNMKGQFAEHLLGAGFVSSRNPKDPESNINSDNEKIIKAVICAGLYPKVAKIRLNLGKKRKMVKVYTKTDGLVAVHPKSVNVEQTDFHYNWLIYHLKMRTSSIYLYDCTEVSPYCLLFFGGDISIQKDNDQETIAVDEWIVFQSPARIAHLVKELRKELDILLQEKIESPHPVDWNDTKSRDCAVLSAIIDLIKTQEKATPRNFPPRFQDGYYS

B1: hsa-mir-663a (structured_RNA)
RNA: GGGAAGCUUUAUGGGGCUAUCAGGCCUCGGUGUACGAAGUUUCAGCCCGCCCUCGUGUCUGUGGCGGUGGGCUGAAGCUUCGUGCAC
In the case of B1, the binding signal (LIN28A) is reported as -1.99 z-score, the binding signal (CIRBP) is reported as -0.753 z-score and the binding signal (DHX36) is reported as -0.396 z-score.

B2: NEAT1_ParasoR_ID36 (structured_RNA)
RNA: GGGAAGACGCGGUAAUACCAUAGUCAGCGGUGUACGAAGUUUCAGCAAUGACAACUUCAUUGCUGAAGCUUCGUGCAC
For B2, the binding signal (LIN28A) was -1.94 z-score, the binding signal (CIRBP) was -0.737 z-score and the binding signal (DHX36) was -1.45 z-score.

B3: hsa-mir-548i-3_548i-2_548i-1 (structured_RNA)
RNA: GGGACGGGGACGUCUUAAGAACUCGUGGGGUGUACGAAGUUUCAGCUGCCAUUAAAAGUAAUGGCAGCUGAAGCUUCGUGCAC
With B3 the binding signal (LIN28A) was -1.88 z-score, the binding signal (CIRBP) was -0.307 z-score and the binding signal (DHX36) was -0.141 z-score.

B4: hsa-mir-548aw (structured_RNA)
RNA: GGGAUCGUAUAAGGUGUUACCAUGGCCCGGUGUACGAAGUUUCAGCGGUUUUUACCAUUAAAACCGCUGAAGCUUCGUGCAC
With B4 the binding signal (LIN28A) was -1.83 z-score, the binding signal (CIRBP) was -0.53 z-score and the binding signal (DHX36) was 0.475 z-score.

B5: hsa-mir-4532 (structured_RNA)
RNA: GGGAGCUGCGUACCCUACUACGUAAACGGGUGUACGAAGUUUCAGCGGCGGUGAAGCUCCGCUGAAGCUUCGUGCAC
Binder B5 has a binding signal (LIN28A) of -1.85 z-score, a binding signal (CIRBP) of -1.06 z-score and a binding signal (DHX36) of -0.464 z-score.

B6: hsa-mir-508 (structured_RNA)
RNA: GGGAAGGUGCGUUCGACCCAUCACCUAAGGUGUACGAAGUUUCAGCCUCAUGUAAACUAAAACAUGAUGCUGAAGCUUCGUGCAC
B6 gave a binding signal (LIN28A) of -1.96 z-score, a binding signal (CIRBP) of -0.705 z-score and a binding signal (DHX36) of -1.31 z-score.

B7: hsa-mir-564 (structured_RNA)
RNA: GGGAACGCUAGGGCUAACGCUUAAACCGGGUGUACGAAGUUUCAGCAGGCAACAUGGCCGAGAGGCCGGGGCCUGCUGAAGCUUCGUGCAC
Work on B7 yielded a binding signal (LIN28A) of -1.88 z-score, a binding signal (CIRBP) of -0.776 z-score and a binding signal (DHX36) of -0.262 z-score.

B8: hsa-mir-4518 (structured_RNA)
RNA: GGGACAGGCGCCGCGAUCUAUAGACUUAGGUGUACGAAGUUUCAGCAUGUCUGCUGGGGAACCGGGGCUGCUGAAGCUUCGUGCAC
B8 showed a binding signal (LIN28A) of -1.84 z-score, a binding signal (CIRBP) of -0.832 z-score and a binding signal (DHX36) of -0.945 z-score.

B9: hsa-mir-8077 (structured_RNA)
RNA: GGGAAAGCAAACGAAAGCCUGUUAGCCUGGUGUACGAAGUUUCAGCAGUCCAAAGGAAAGGGCUGCUGAAGCUUCGUGCAC
In the case of B9, the binding signal (LIN28A) is reported as -1.88 z-score, the binding signal (CIRBP) is reported as 0.817 z-score and the binding signal (DHX36) is reported as -1.02 z-score.

B10: hsa-mir-4262 (structured_RNA)
RNA: GGGACACUGGAGGGCAACCUACUCCACUGGUGUACGAAGUUUCAGCUGUUGGGGGGACAGCUGAAGCUUCGUGCAC
Work on B10 yielded a binding signal (LIN28A) of -1.93 z-score, a binding signal (CIRBP) of -0.314 z-score and a binding signal (DHX36) of 0.764 z-score.

B11: hsa-mir-558 (structured_RNA)
RNA: GGGAGGCCGUUCAAGUCUCUACCUGCAUGGUGUACGAAGUUUCAGCCUCUAGACUCUAUUAUAGUUUCCUGAGGCUGAAGCUUCGUGCAC
B11 was tested, and the binding signal (LIN28A) was -2.01 z-score, the binding signal (CIRBP) was -1.56 z-score and the binding signal (DHX36) was -1.59 z-score.

B12: hsa-mir-3194 (structured_RNA)
RNA: GGGAUCGCUGCCUGUUUUAGUGUUGCCCGGUGUACGAAGUUUCAGCGGCUGCGUGCCACCCGGGCAGCUGCUGAAGCUUCGUGCAC
For B12, the binding signal (LIN28A) was -1.96 z-score, the binding signal (CIRBP) was -0.853 z-score and the binding signal (DHX36) was -0.412 z-score.

B13: hsa-mir-6771 (structured_RNA)
RNA: GGGAAGAUAGCAGGUUCCCUCAUCGCCCGGUGUACGAAGUUUCAGCCCAGGCCACAUAAUGAGCCAAAGCUGAAGCUUCGUGCAC
With B13 the binding signal (LIN28A) was -1.94 z-score, the binding signal (CIRBP) was -0.477 z-score and the binding signal (DHX36) was -0.00733 z-score.

B14: hsa-mir-1909 (structured_RNA)
RNA: GGGACGCCAGUAUGCAAAUUAAGUGCUCGGUGUACGAAGUUUCAGCUGCCCUGGGGCCGUCCCUGCGCAGCUGAAGCUUCGUGCAC
In the case of B14, the binding signal (LIN28A) is reported as -1.83 z-score, the binding signal (CIRBP) is reported as -1.41 z-score and the binding signal (DHX36) is reported as -0.441 z-score.

B15: hsa-mir-320d-2 (structured_RNA)
RNA: GGGAAAUCUGUGCAGGCUCAACCCCUUGGGUGUACGAAGUUUCAGCUCUUCUUGGAGUCAGGAAAAGCUGAAGCUUCGUGCAC
B15 was tested, and the binding signal (LIN28A) was -1.89 z-score, the binding signal (CIRBP) was 0.543 z-score and the binding signal (DHX36) was 0.02 z-score.

B16: hsa-mir-3713 (structured_RNA)
RNA: GGGAGAACUGUCUCCACGCUCACUAAGCGGUGUACGAAGUUUCAGCUGGUUUCACUAGCUGAAGCUUCGUGCAC
Binder B16 has a binding signal (LIN28A) of -1.99 z-score, a binding signal (CIRBP) of -0.194 z-score and a binding signal (DHX36) of -1.21 z-score.

B17: NEAT1_ParasoR_ID25 (structured_RNA)
RNA: GGGACUGCAGAGCAACCUAUACCAAUGGGGUGUACGAAGUUUCAGCCAGCUCCAUCCAAAAUUGCUGGCUGAAGCUUCGUGCAC
B17 gave a binding signal (LIN28A) of -2.01 z-score, a binding signal (CIRBP) of -1.08 z-score and a binding signal (DHX36) of -0.155 z-score.

B18: hsa-mir-1182 (structured_RNA)
RNA: GGGACGACAUAGGACGCAUCCUUCACCGGGUGUACGAAGUUUCAGCAUUCUGGAGUCCAUCUAGAGGCUGAAGCUUCGUGCAC
Work on B18 yielded a binding signal (LIN28A) of -1.92 z-score, a binding signal (CIRBP) of -0.941 z-score and a binding signal (DHX36) of -1.28 z-score.

B19: hsa-mir-4738 (structured_RNA)
RNA: GGGAGAAACGCAUCCCGUCGCUAAAAUGGGUGUACGAAGUUUCAGCUUCAUAGGGAAGCCUUUCCAUGAAGCUGAAGCUUCGUGCAC
Work on B19 yielded a binding signal (LIN28A) of -1.87 z-score, a binding signal (CIRBP) of 0.292 z-score and a binding signal (DHX36) of -0.259 z-score.

B20: hsa-mir-4658 (structured_RNA)
RNA: GGGAUCAUGCUGGGUUCCUUAGGCGUCGGGUGUACGAAGUUUCAGCCCACUACCGGUGAGCUGAAGCUUCGUGCAC
With B20 the binding signal (LIN28A) was -1.87 z-score, the binding signal (CIRBP) was -0.922 z-score and the binding signal (DHX36) was -1.6 z-score.

B21: hsa-mir-137 (structured_RNA)
RNA: GGGAAUAGGUGGGCCUGACAACUUCCGAGGUGUACGAAGUUUCAGCAUAAUACGGAUUACGUUGUUAGCUGAAGCUUCGUGCAC
For B21, the binding signal (LIN28A) was -1.94 z-score, the binding signal (CIRBP) was -0.838 z-score and the binding signal (DHX36) was -1.15 z-score.

B22: hsa-mir-4292 (structured_RNA)
RNA: GGGCAUUCAAACCCUAAGUGUGGCUAUGGGUGUACGAAGUUUCAGCGAGGCCAGAGGUGCCCGCUGAAGCUUCGUGCAC
B22 was tested, and the binding signal (LIN28A) was -1.85 z-score, the binding signal (CIRBP) was -0.578 z-score and the binding signal (DHX36) was -0.636 z-score.

B23: hsa-mir-6069 (structured_RNA)
RNA: GGGAAAUUAGGGUCAUCUAGAAAUCCGUGGUGUACGAAGUUUCAGCCCCUGCCCAGUGCAGGAGGCUGAAGCUUCGUGCAC
B23 was tested, and the binding signal (LIN28A) was -1.89 z-score, the binding signal (CIRBP) was -0.598 z-score and the binding signal (DHX36) was -0.681 z-score.

B24: hsa-mir-451a (structured_RNA)
RNA: GGGAGCUGGUGACCCCGUGUACGUCUUAGGUGUACGAAGUUUCAGCUGAGUUUAGCUGAAGCUUCGUGCAC
With B24 the binding signal (LIN28A) was -1.96 z-score, the binding signal (CIRBP) was -0.294 z-score and the binding signal (DHX36) was -1.5 z-score.

B25: hsa-mir-4304 (structured_RNA)
RNA: GGGAGCUACUUGCAACACUUCACCAGCCGGUGUACGAAGUUUCAGCGGCAUCCCCAUUGCUGCUGAAGCUUCGUGCAC
Binder B25 has a binding signal (LIN28A) of -1.96 z-score, a binding signal (CIRBP) of -0.891 z-score and a binding signal (DHX36) of -0.453 z-score.

B26: hsa-mir-4456 (structured_RNA)
RNA: GGGAAAGCCGGUCACGACGUUCAUAAUAGGUGUACGAAGUUUCAGCUUUUCUGGGAGCUGAAGCUUCGUGCAC
Work on B26 yielded a binding signal (LIN28A) of -1.99 z-score, a binding signal (CIRBP) of -0.696 z-score and a binding signal (DHX36) of -1.43 z-score.
